In publication PMC9440615 (Biochemical pharmacology, 2020):
Counter-ions that a name gives are not always drawn.

Biological target: T1, hPXR (Homo sapiens, UniProt O75469)
T1 sequence (O75469 1-434): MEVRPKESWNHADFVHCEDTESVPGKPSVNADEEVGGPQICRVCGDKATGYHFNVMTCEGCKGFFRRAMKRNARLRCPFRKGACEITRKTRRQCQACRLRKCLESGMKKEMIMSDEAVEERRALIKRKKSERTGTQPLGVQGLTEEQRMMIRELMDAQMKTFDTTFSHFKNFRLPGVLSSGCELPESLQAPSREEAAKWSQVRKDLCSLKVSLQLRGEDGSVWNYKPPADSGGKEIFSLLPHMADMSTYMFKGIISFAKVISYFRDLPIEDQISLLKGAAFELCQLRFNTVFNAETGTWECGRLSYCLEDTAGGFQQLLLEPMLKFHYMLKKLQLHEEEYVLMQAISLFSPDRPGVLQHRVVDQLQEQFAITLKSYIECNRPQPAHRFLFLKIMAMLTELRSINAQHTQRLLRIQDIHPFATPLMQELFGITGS
Conditions: follow-up (cherry-pick confirmation), hPXR-Luc HepG2, 24 h; relative to positive control RIF

Row | Structure (SMILES) | PXR Follow-up Efficacy [%]
1 | CC(C)C[C@H](NC(=O)[C@H](CCc1ccccc1)NC(=O)CN1CCOCC1)C(=O)N[C@@H](Cc1ccccc1)C(=O)N[C@@H](CC(C)C)C(=O)[C@@]1(C)CO1 [Carfilzomib] | 108 ± 23.9
2 | O[C@@H](COc1cccc2ncccc12)CN1CCN([C@@H]2c3ccccc3[C@@H]3[C@H](c4ccccc42)C3(F)F)CC1 [Zosuquidar trihydrochloride] | 106 ± 9.09
3 | Cc1cccc(N(C)C(=S)Oc2ccc3c(c2)CCC3)c1 [Tolindate] | 113 ± 7.13

The next lines start with the values.

Row | PXR Follow-up Efficacy [%] | Structure (SMILES)
4 | 145 ± 9.86 | Cc1oc2c(NC(=O)c3c(Cl)cccc3Cl)cccc2c1C(C)(C)O [FR167356]
5 | 142 ± 19.4 | CCN1C(=O)c2ccccc2C1Nc1ccc(OCCN2CCCCC2)cc1 (stereo not drawn) [Etomidoline]
6 | 138 ± 9.00 | CCOc1cc(N)c(Cl)cc1C(=O)NCC1CN(Cc2ccc(F)cc2)CCO1 (stereo not drawn) [Mosapride citrate]
